Measurements as given in US20150164899A1, “INHIBITION OF ADAPTOR ASSOCIATED KINASE 1 FOR THE TREATMENT OF PAIN” (priority 2012, published 2015).

The chains behind the UniProt entries cited, without tags or fusion partners. Residues count along the entry.
UniProt Q2M2I8, whole entry: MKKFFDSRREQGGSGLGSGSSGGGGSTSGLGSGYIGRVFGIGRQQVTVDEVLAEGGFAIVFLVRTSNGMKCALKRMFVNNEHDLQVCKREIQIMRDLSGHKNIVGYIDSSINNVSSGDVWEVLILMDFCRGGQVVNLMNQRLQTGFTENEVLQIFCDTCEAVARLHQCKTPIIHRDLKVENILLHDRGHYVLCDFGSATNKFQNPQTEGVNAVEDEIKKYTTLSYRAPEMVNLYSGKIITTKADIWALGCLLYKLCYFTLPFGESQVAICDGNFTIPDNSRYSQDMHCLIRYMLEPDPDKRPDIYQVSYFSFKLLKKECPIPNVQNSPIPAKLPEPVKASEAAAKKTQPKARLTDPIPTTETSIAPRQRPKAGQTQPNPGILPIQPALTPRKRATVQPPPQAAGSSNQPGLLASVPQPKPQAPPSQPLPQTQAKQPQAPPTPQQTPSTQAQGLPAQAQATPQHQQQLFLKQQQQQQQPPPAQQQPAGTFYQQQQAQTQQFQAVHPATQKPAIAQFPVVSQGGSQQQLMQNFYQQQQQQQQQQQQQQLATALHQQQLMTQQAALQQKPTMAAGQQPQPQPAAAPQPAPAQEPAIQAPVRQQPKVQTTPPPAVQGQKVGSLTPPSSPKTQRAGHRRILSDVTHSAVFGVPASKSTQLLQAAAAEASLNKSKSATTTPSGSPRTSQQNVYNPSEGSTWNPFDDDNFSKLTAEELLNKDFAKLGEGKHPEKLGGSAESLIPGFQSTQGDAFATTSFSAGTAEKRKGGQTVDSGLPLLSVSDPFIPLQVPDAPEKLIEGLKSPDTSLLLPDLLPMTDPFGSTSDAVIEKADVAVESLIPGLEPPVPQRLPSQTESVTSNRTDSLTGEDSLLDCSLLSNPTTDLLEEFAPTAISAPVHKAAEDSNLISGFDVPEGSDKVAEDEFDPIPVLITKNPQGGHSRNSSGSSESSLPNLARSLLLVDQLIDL
UniProt Q2M2I8, 1-863 isoform 2: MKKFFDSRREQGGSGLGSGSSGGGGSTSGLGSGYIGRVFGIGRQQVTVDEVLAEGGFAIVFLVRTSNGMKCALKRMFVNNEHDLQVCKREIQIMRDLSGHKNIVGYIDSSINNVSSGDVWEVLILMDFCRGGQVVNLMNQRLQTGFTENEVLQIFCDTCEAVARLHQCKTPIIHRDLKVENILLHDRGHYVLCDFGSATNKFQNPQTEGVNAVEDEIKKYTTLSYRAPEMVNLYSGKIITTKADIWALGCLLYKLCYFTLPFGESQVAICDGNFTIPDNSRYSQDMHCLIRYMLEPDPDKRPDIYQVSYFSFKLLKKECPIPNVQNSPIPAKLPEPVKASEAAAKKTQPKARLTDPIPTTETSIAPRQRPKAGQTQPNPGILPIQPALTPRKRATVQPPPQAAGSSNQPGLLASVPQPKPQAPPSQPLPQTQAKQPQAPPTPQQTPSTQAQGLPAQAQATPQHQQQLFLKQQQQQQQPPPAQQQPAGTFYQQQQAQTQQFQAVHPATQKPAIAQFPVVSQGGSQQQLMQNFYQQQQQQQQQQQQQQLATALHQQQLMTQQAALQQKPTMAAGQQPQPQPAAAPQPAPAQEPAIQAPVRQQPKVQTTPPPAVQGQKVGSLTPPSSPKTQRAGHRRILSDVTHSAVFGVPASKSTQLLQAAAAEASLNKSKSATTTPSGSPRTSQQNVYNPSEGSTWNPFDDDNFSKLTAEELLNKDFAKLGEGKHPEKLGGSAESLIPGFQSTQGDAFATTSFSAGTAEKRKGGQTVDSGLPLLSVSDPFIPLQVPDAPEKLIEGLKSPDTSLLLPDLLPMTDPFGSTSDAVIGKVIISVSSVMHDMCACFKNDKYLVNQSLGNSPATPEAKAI

Columns and labels:
[1] = target: AAK1 (full length human) in transfected HEK293F cells (Homo sapiens, UniProt Q2M2I8); test: HEK281 cell-based assay (phospho-mu2 Western blot); conditions: read-out: CBA IC50; aryl ethers, class symbols
GST-Xa-hAAK1 = GST-Xa-hAAK1 (Homo sapiens, UniProt Q2M2I8); test: Caliper assay; conditions: read-out: Caliper IC50; aryl ethers, class symbols

## CC(C)C[C@H](N)COc1ccc2c(c1)oc(=O)c1cnccc12
[1]
  pIC50: 7.00 to 8.00
GST-Xa-hAAK1
  pIC50: 7.00 to 8.00

pIC50: −log10 of the molar value.
